Laboratory results as given in EP1903056A2, “HLA-A1, -A2 -A3, -A24, -B7, and -B44 tumor associated antigen peptides and compositions” (priority 2002, dated 2004).

How the values were obtained:
B*4001(B60) = B*4001(B60) (Homo sapiens, UniProt P01889, A65T/A93T/A95T/D138N/D98Y/E176V/E69K/N87E/Q56L/Q94N/R180L/S121R/S35A/S48T/T167S/V36M/W171L/Y33H/Y91S); experiment: B44 supertype peptide binding, B*4001; details: Her2/neu-derived B44 peptides; read-out: B* 4001
B*1801 = B*1801 (Homo sapiens, UniProt P01889, A329T/A93T/A95T/C349S/D201E/D54G/D98Y/E176V/E187T/E204Q/E69T/K202T/Q94N/R155S/R180L/S121R/V306I/Y140S/Y195H/Y33H/Y91S); experiment: B44 supertype peptide binding, B*1801; details: Her2/neu-derived B44 peptides
[1] = tested on: B44 supertype (B*1801, B*4001, B*4002, B*4402, B*4403, B*4501); experiment: B44 supertype cross-binding (degeneracy, number of alleles bound); parameters: species or system human; details: number of the six B44 supertype alleles bound
B*4402 = B*4402 (Homo sapiens, UniProt P01889, A223V/A65T/A93T/A95T/D201E/D98Y/E176V/E187L/E204Q/E69K/G107R/H137Y/K202T/L105A/L119I/N104T/N87E/Q56L/Q94N/R106L/R155S/R180D/S101N/S121R/S35A/S48T/T118I/V36M/W191S/Y140D/Y91S); experiment: B44 supertype peptide binding, B*4402; details: Her2/neu-derived B44 peptides; read-out: B* 4402
B*4002 (B61) = B*4002 (B61) (Homo sapiens, UniProt P01889, A65T/A93T/A95T/D138N/D201E/D98Y/E176V/E204Q/E69K/K202T/N87E/Q56L/Q94N/R180L/S48T/Y33H/Y91S); experiment: B44 supertype peptide binding, B*4002; details: Her2/neu-derived B44 peptides; read-out: B* 4002
B*4403 = B*4403 (Homo sapiens, UniProt P01889, A223V/A65T/A93T/A95T/D201E/D98Y/E176V/E187L/E204Q/E69K/G107R/H137Y/K202T/L105A/L119I/N104T/N87E/Q56L/Q94N/R106L/R155S/R180L/S101N/S121R/S35A/S48T/T118I/V36M/W191S/Y140D/Y91S); experiment: B44 supertype peptide binding, B*4403; details: Her2/neu-derived B44 peptides; read-out: B* 4403
B*4501 = B*4501 (Homo sapiens, UniProt P01889, A329T/A65T/A93T/A95T/C349S/D138N/D201E/D98Y/E176V/E187L/E204Q/E69K/H137Y/K202T/L119W/N87E/Q56L/Q94N/R155S/R180D/S121R/S35A/S48T/V127L/V306I/V36M/W191S/Y140L/Y33H/Y91S); experiment: B44 supertype peptide binding, B*4501; details: Her2/neu-derived B44 peptides; read-out: B* 4501

| Structure (SMILES) | IC50 (B*4001(B60)) [µM] | IC50 (B*1801) [µM] | Degeneracy [1] | IC50 (B*4402) [µM] | IC50 (B*4002 (B61)) [µM] | IC50 (B*4403) [µM] | IC50 (B*4501) [µM] |
| --- | --- | --- | --- | --- | --- | --- | --- |
| CC(C)C[C@H](NC(=O)[C@@H]1CCCN1C(=O)[C@H](CO)NC(=O)[C@H](CCCNC(=N)N)NC(=O)[C@@H]1CCCN1C(=O)[C@H](C)NC(=O)[C@H](CCC(=O)O)NC(=O)[C@H](CCC(=O)O)NC(=O)[C@@H](N)CCC(=O)O)C(=O)N[C@@H](C)C(=O)O [compound 566] | > 10 | 6.61 | 1 | 3.13 | > 10 |  |  |
| CC(C)C[C@H](NC(=O)[C@@H]1CCCN1C(=O)[C@H](CO)NC(=O)[C@H](CCCNC(=N)N)NC(=O)[C@@H]1CCCN1C(=O)[C@H](C)NC(=O)[C@H](CCC(=O)O)NC(=O)[C@@H](N)CCC(=O)O)C(=O)O [compound 567] | 3.49 |  | 1 | 3.02 |  |  |  |
| CC(C)[C@H](NC(=O)[C@H](CC(=O)O)NC(=O)[C@@H]1CCCN1C(=O)[C@H](CCC(N)=O)NC(=O)[C@H](CC(N)=O)NC(=O)[C@@H](NC(=O)[C@H](Cc1ccc(O)cc1)NC(=O)[C@H](CCC(=O)O)NC(=O)[C@@H]1CCCN1)C(C)C)C(=O)O [compound 569] | 3.44 | 0.831 | 1 |  | 1.58 |  |  |
| CC(C)C[C@H](NC(=O)[C@H](Cc1ccc(O)cc1)NC(=O)[C@H](CCC(=O)O)NC(=O)[C@@H]1CCCN1)C(=O)N[C@H](C(=O)N1CCC[C@H]1C(=O)N[C@@H](CCC(N)=O)C(=O)NCC(=O)NCC(=O)O)[C@@H](C)O [compound 571] |  | 1.46 | 1 | 6.53 | 13.9 | 0.284 |  |
| C[C@H](NC(=O)CNC(=O)[C@H](CCCNC(=N)N)NC(=O)[C@H](CCC(=O)O)NC(=O)[C@@H]1CCCN1)C(=O)N1CCC[C@H]1C(=O)N1CCC[C@H]1C(=O)N[C@@H](CO)C(=O)N[C@H](C(=O)N[C@@H](Cc1ccccc1)C(=O)O)[C@@H](C)O [compound 572] | 14.9 |  | 1 | 6.87 | 3.44 |  |  |
| CC(C)C[C@H](NC(=O)[C@H](CO)NC(=O)[C@H](CCC(N)=O)NC(=O)[C@H](CS)NC(=O)[C@H](CC(=O)O)NC(=O)[C@H](CCC(=O)O)NC(=O)[C@@H](N)CO)C(=O)N[C@H](C(=O)N[C@@H](CCCNC(=N)N)C(=O)N[C@H](C(=O)O)[C@@H](C)O)[C@@H](C)O [compound 574] | 8.55 | 7.26 | 0 | 0.518 | 11.5 |  | 5.18 |
| C[C@H](NC(=O)CNC(=O)[C@H](Cc1ccccc1)NC(=O)[C@@H](NC(=O)[C@H](Cc1ccc(O)cc1)NC(=O)[C@H](CCCNC(=N)N)NC(=O)CNC(=O)[C@H](CCC(=O)O)NC(=O)[C@@H]1CCCN1)[C@@H](C)O)C(=O)O [compound 576] | > 10 | 5.25 | 0 | > 10 | > 10 | 0.658 | 15.1 |
| C[C@H](NC(=O)[C@@H]1CCCN1C(=O)[C@H](CC(=O)O)NC(=O)CNC(=O)[C@H](CC(=O)O)NC(=O)[C@H](Cc1ccccc1)NC(=O)[C@H](CO)NC(=O)[C@H](CCC(=O)O)NC(=O)[C@@H]1CCCN1)C(=O)O [compound 577] | 11.5 | 14.5 | 0 | > 10 | > 10 | 1.17 | 4.42 |
| C[C@H](NC(=O)[C@H](Cc1c[nH]cn1)NC(=O)[C@H](Cc1ccc(O)cc1)NC(=O)[C@H](CCC(=O)O)NC(=O)[C@@H](NC(=O)[C@H](CCC(=O)O)NC(=O)[C@@H](N)CC(=O)O)[C@@H](C)O)C(=O)O [compound 593] | > 10 |  | 0 | > 10 | 18.3 | 10.5 | > 10 |
| CC(C)C[C@H](NC(=O)[C@H](Cc1ccc(O)cc1)NC(=O)[C@H](CCC(=O)O)NC(=O)[C@@H]1CCCN1C(=O)[C@H](CC(N)=O)NC(=O)[C@H](CCC(=O)O)NC(=O)[C@@H](N)C(C)C)C(=O)O [compound 596] | 14.7 | > 10 | 0 |  | > 10 | 12.1 | > 10 |

The next lines start with the values.

| IC50 (B*4001(B60)) [µM] | IC50 (B*1801) [µM] | Degeneracy [1] | IC50 (B*4402) [µM] | IC50 (B*4002 (B61)) [µM] | IC50 (B*4403) [µM] | IC50 (B*4501) [µM] | Structure (SMILES) |
| --- | --- | --- | --- | --- | --- | --- | --- |
| 11.6 | 1.8 | 0 | 5.81 | > 10 | 4.66 | 9.32 | CC(C)C[C@H](NC(=O)[C@H](CCC(N)=O)NC(=O)[C@H](CCC(=O)O)NC(=O)[C@@H]1CCCN1)C(=O)N[C@@H](CCC(N)=O)C(=O)N[C@H](C(=O)N[C@@H](Cc1ccccc1)C(=O)N[C@@H](CCC(=O)O)C(=O)N[C@H](C(=O)O)[C@@H](C)O)C(C)C [compound 578] |
| 5.39 | 9.15 | 0 | > 10 | > 10 | 3.23 | > 10 | CC[C@H](C)[C@H](NC(=O)[C@H](CCC(=O)O)NC(=O)[C@H](CCC(=O)O)NC(=O)[C@H](CC(C)C)NC(=O)[C@@H](NC(=O)[C@H](CCC(=O)O)NC(=O)[C@H](Cc1ccccc1)NC(=O)[C@@H](NC(=O)[C@H](CCC(N)=O)NC(=O)[C@H](CC(C)C)NC(=O)[C@H](CCC(N)=O)NC(=O)[C@H](CCC(=O)O)NC(=O)[C@@H]1CCCN1)C(C)C)[C@@H](C)O)C(=O)O [compound 580] |
| 14.2 | 1.75 | 0 | 10.3 | 8.71 | 0.753 | > 10 | CC[C@H](C)[C@H](NC(=O)[C@H](CCC(=O)O)NC(=O)[C@H](CCC(=O)O)NC(=O)[C@H](CC(C)C)NC(=O)[C@@H](NC(=O)[C@H](CCC(=O)O)NC(=O)[C@@H](N)Cc1ccccc1)[C@@H](C)O)C(=O)N[C@H](C(=O)NCC(=O)O)[C@@H](C)O [compound 581] |
| 17.6 | 8.59 | 0 | > 10 | 11.5 | 0.989 | > 10 | CC[C@H](C)[C@H](NC(=O)[C@H](CCC(=O)O)NC(=O)[C@H](CCC(=O)O)NC(=O)[C@@H](N)CC(C)C)C(=O)N[C@H](C(=O)NCC(=O)N[C@@H](Cc1ccc(O)cc1)C(=O)O)[C@@H](C)O [compound 582] |
| 13.5 | 1.05 | 0 |  | > 10 | 5.34 | > 10 | CC[C@H](C)[C@H](NC(=O)[C@H](CCC(=O)O)NC(=O)[C@H](CCC(=O)O)NC(=O)[C@@H](N)CC(C)C)C(=O)N[C@H](C(=O)NCC(=O)N[C@@H](Cc1ccc(O)cc1)C(=O)N[C@@H](CC(C)C)C(=O)N[C@@H](Cc1ccc(O)cc1)C(=O)O)[C@@H](C)O [compound 583] |
| 17.4 |  | 0 | > 10 | > 10 | 2.66 | > 10 | CC(C)C[C@H](NC(=O)[C@H](CCCNC(=N)N)NC(=O)[C@@H](NC(=O)[C@H](CC(=O)O)NC(=O)[C@H](CCC(=O)O)NC(=O)[C@@H](N)CC(C)C)C(C)C)C(=O)N[C@H](C(=O)O)C(C)C [compound 592] |
| 2.96 | 9.18 | 0 | 6.75 | 3.6 | 3.64 |  | CSCC[C@H](NC(=O)[C@H](CC(=O)O)NC(=O)[C@H](CC(=O)O)NC(=O)[C@H](CC(=O)O)NC(=O)[C@H](CCC(=O)O)NC(=O)[C@@H](N)CC(C)C)C(=O)NCC(=O)N[C@@H](CC(=O)O)C(=O)N[C@@H](CC(C)C)C(=O)N[C@H](C(=O)O)C(C)C [compound 594] |
